These are literature values, as cited in patent US11135309B2, “Poly(vinyl alcohol) nanocarriers” (THE REGENTS OF THE UNIVERSITY OF CALIFORNIA, priority 2015, dated 2021).

The chains behind the UniProt entries cited, without tags or fusion partners. Residues count along the entry.
UniProt P05556, 21-798 limits assumed: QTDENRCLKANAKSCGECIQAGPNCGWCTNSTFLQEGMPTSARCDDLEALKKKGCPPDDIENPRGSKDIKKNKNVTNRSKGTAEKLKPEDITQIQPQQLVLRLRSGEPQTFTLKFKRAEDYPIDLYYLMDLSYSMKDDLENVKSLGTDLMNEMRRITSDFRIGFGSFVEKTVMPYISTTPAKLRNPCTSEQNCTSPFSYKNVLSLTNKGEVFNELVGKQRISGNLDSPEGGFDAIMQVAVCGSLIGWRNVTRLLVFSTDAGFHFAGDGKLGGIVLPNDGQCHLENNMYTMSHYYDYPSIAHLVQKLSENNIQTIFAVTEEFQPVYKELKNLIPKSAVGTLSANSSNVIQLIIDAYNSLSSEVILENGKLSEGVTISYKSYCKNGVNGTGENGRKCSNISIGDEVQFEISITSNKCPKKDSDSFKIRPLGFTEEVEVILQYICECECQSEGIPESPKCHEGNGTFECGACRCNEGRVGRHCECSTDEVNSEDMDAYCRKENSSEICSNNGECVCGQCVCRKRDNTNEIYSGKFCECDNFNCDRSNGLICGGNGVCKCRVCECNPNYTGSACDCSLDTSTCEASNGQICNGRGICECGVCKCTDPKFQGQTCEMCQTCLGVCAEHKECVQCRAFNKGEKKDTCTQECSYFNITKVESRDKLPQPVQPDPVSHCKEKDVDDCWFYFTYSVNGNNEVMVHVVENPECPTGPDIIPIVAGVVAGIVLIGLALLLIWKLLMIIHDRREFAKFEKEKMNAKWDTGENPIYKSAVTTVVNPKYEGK
UniProt P26006, 33-872 limits assumed: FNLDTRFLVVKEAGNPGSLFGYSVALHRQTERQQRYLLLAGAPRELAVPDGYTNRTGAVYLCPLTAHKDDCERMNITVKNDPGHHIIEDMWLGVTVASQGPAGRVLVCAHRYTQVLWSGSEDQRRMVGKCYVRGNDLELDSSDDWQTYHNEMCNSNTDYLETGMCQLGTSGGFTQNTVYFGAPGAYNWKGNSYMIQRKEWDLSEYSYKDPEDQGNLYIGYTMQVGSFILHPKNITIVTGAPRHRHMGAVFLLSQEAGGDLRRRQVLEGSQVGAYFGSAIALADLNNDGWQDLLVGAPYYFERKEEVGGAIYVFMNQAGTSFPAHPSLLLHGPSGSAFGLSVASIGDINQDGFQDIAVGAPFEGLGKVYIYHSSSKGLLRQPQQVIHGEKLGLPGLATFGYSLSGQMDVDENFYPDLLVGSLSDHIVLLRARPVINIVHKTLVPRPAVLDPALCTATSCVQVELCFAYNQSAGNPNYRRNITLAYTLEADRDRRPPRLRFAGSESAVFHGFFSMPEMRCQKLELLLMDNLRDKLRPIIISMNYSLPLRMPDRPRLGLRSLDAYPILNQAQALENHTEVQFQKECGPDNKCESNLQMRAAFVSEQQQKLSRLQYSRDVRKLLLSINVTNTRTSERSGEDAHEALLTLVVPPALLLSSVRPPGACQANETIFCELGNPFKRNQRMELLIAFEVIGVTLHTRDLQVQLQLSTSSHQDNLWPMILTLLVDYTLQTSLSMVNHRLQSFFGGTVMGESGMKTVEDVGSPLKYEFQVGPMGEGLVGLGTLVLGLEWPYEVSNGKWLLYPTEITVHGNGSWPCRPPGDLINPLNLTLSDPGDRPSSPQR
UniProt P26006, 873-1051 limits assumed: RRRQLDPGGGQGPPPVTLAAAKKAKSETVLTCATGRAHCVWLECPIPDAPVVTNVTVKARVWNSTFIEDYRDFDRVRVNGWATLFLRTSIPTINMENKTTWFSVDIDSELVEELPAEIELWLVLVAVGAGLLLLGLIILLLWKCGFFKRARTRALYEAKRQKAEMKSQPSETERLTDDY

The series addresses α3 integrin (Homo sapiens, UniProt P05556+P26006). Conditions: read-out: Kd (binding specificity to α3 integrin); cited from earlier work.

The structures appear in SMILES notation.

By Kd is commonly meant the constant that tells how readily two partners part at equilibrium. In the case of `NC(=O)C[C@@H]1NC(=O)[C@@H]2C[C@@H](O)CN2C(=O)CNC(=O)[C@H](Cc2ccc(O)c([N+](=O)[O-])c2)NC(=O)CNC(=O)[C@@H](CC(=O)O)NC(=O)[C@H](N)CSSC[C@H](C(N)=O)NC1=O`, the Kd was 57 nM.
